# Reference: article PMC6405930, “Conservation of the Amyloid Interactome Across Diverse Fibrillar Structures” (Scientific Reports, 2019)
# Amino acid sequences for entries named in this document (tags omitted). Residues count along the entry.
# UniProt P05067, 672-711: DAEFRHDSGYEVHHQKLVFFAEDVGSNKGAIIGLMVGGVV
# Read-outs that look alike come from different tables or passages of the source.
# Columns and labels:
# [1] = target: Ab2 fibrils (Aβ(1–40)) (Homo sapiens, UniProt P05067); experiment: Fibril titration with ThT (fluorescence); settings: 7.5 μg fibril material, two-site binding model
# Procedure: (§1) Fibril material (7.5 μg) was set up in 100 μL phosphate buffer in a 96 well half-area NBS plate (NUNC/Terma).
# [2] = target: Ab1 fibrils (Aβ(1–40)) (Homo sapiens, UniProt P05067); experiment: Fibril titration with ThT (fluorescence); settings: 7.5 μg fibril material, two-site binding model
# Procedure: as §1
# [3] = read-out: dissociation constant kd1
# [4] = read-out: dissociation constant kd2
smiles,measurement,setting,value
"Cc1ccc2c(c1)sc(-c1ccc(N(C)C)cc1)[n+]2C [ThT, Thioflavin T]",Kd,[1]; [3],400 ± 10 nM
same,Kd,[1]; [4],800 nM
same,Kd,[2]; [3],400 ± 10 nM
same,Kd,[2]; [4],820 ± 20 nM
